The text below walks through data of US9604989B2, “Imidazopyridazines as Akt kinase inhibitors” (Bayer Intellectual Property GmbH, priority 2011, dated 2017).

Amino acid sequences for entries named in this document (tags omitted). A change or cut given only in a name is not applied to a line headed by its entry.
UniProt P31749: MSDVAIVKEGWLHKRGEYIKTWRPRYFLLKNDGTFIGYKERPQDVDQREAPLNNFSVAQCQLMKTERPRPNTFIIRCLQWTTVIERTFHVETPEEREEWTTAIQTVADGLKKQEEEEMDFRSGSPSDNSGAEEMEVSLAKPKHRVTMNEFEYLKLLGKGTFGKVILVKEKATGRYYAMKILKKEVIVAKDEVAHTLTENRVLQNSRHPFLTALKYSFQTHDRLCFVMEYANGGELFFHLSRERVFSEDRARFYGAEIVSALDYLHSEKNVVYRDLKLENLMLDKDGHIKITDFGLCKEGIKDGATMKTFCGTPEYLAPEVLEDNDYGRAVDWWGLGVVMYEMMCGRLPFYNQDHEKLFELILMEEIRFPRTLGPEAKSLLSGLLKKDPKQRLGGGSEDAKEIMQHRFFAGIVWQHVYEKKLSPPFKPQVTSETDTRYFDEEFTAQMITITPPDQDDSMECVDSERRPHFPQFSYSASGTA
UniProt P31751: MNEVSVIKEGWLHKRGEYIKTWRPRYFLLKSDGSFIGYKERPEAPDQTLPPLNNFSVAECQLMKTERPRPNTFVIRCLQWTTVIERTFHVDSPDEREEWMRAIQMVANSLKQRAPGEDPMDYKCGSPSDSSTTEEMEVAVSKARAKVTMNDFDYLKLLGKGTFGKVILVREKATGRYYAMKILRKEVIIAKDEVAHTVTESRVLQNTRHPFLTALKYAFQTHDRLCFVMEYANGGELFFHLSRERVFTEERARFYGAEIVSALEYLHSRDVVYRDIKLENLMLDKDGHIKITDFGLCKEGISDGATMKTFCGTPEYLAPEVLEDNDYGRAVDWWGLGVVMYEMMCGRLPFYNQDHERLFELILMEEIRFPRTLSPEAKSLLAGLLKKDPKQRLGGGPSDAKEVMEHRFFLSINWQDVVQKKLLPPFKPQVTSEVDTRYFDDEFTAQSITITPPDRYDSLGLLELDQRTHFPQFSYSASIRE

Counter-ions that a name gives are not always drawn.

The first test addresses His-tagged human recombinant kinase full-length Akt1 (Homo sapiens (Human), UniProt P31749). As to the kind of experiment: Akt1 kinase assay (Akt1 TR-FRET assay). In kind it is biochemical. To be noted: 10 μM ATP, 60 min at 22° C., read-out: Akt1 median IC50. On the technique in general: TR-FRET usually uses a lanthanide donor and a delayed reading to cut background.
By IC50 is commonly meant the midpoint of a concentration-inhibition curve. Turning to `CCc1cc(OC)c2nc(-c3ccc(C4(N)CCC4)cc3)c(-c3ccccc3)n2n1` [Example 13, 1-[4-(6-Ethyl-8-methoxy-3-phenylimidazo[1,2-b]pyridazin-2-yl)phenyl]cyclobutanamine], the IC50 was found to be 78 nM.
In the case of `CNC(=O)c1cc(OC)c2nc(-c3ccc(C4(N)CCC4)cc3)c(-c3ccccc3)n2n1` [Example 26, 2-[4-(1-Aminocyclobutyl)phenyl]-8-methoxy-N-methyl-3-phenylimidazo[1,2-b]pyridazine-6-carboxamide], the IC50 was 6.3 nM.
In the case of `COCCOc1cc(C(N)=O)nn2c(-c3ccccc3)c(-c3ccc(C4(N)CCC4)cc3)nc12` [Example 28, 2-[4-(1-Aminocyclobutyl)phenyl]-8-(2-methoxy-ethoxy)-3-phenylimidazo[1,2-b]pyridazine-6-carboxamide], the IC50 was 5 nM.
For `COC(=O)c1ccnn2c(-c3ccccc3)c(-c3ccc(C4(N)CCC4)cc3)nc12` [Example 31, Methyl 2-[4-(1-aminocyclobutyl)phenyl]-3-phenylimidazo[1,2-b]pyridazine-8-carboxylate], the IC50 worked out at 48 nM.
`NC1(c2ccc(-c3nc4c(O)ccnn4c3-c3ccccc3)cc2)CCC1` [Example 32, 2-[4-(1-Aminocyclobutyl)phenyl]-3-phenylimidazo[1,2-b]pyridazin-8-ol]: the IC50 came to 3700 nM.
Same read-out and setting: the value for `NC(=O)c1cc(C(N)=O)c2nc(-c3ccc(C4(N)CCC4)cc3)c(-c3ccccc3)n2n1` [Example 34, 2-[4-(1-Aminocyclobutyl)phenyl]-3-phenylimidazo[1,2-b]pyridazine-6,8-dicarboxamide] was 3.9 nM; that for `Nc1ccc2nc(-c3ccc(C4(N)CCC4)cc3)c(-c3ccccc3)n2n1` [Example 35, 2-[4-(1-Aminocyclobutyl)phenyl]-3-phenylimidazo[1,2-b]pyridazin-6-amine] was 350 nM; that for `NC1(c2ccc(-c3nc4ccc(NC(=O)C(F)(F)F)nn4c3-c3ccccc3)cc2)CCC1` [Example 40, N-{2-[4-(1-Aminocyclobutyl)phenyl]-3-phenylimidazo[1,2-b]pyridazin-6-yl}-2,2,2-trifluoroacetamide] was 1700 nM.
In the case of `NC1(c2ccc(-c3nc4c(-c5ccc(F)cc5)ccnn4c3-c3ccccc3)cc2)CCC1` [Example 44, 1-{4-[8-(4-Fluorophenyl)-3-phenylimidazo[1,2-b]pyridazin-2-yl]phenyl}cyclobutanamine], the IC50 amounted to 190 nM.
As for `NC1(c2ccc(-c3nc4c(C5CC5)cc(Cl)nn4c3-c3ccccc3)cc2)CCC1` [Example 46, 1-[4-(6-Chloro-8-cyclopropyl-3-phenylimidazo [1,2-b]pyridazin-2-yl)phenyl]cyclobutanamine], the IC50 is 110 nM.
For `Nc1ccnn2c(-c3ccccc3)c(-c3ccc(C4(N)CCC4)cc3)nc12` [Example 48, 2-[4-(1-Aminocyclobutyl)phenyl]-3-phenylimidazo[1,2-b]pyridazin-8-amine], the IC50 came to 180 nM.
For `CNC(=O)c1cc(OCC2CC2)c2nc(-c3ccc(C4(N)CCC4)cc3)c(-c3ccccc3)n2n1` [Example 64, 2-[4-(1-Aminocyclobutyl)phenyl]-8-(cyclopropylmethoxy)-N-methyl-3-phenylimidazo[1,2-b]pyridazine-6-carboxamide], the IC50 came to 4.8 nM.
Take `CCNC(=O)c1ccc2nc(-c3ccc(C4(N)CCC4)cc3)c(-c3ccccc3)n2n1` [Example 66, 2-[4-(1-Aminocyclobutyl)phenyl]-N-ethyl-3-phenylimidazo[1,2-b]pyridazine-6-carboxamide]: the IC50 was 51 nM.
With `NC1(c2ccc(-c3nc4ccc(C(=O)NCCO)nn4c3-c3ccccc3)cc2)CCC1` [Example 70, 2-[4-(1-Aminocyclobutyl)phenyl]-N-(2-hydroxyethyl)-3-phenylimidazo[1,2-b]pyridazine-6-carboxamide], the IC50 came to 130 nM.

A further test deals with His-tagged human recombinant kinase full-length Akt2 (Homo sapiens (Human), UniProt P31751). As to the kind of experiment: Akt2 kinase assay (Akt2 TR-FRET assay). In kind it is biochemical. To be noted: 10 μM ATP, 60 min at 22° C., read-out: Akt2 median IC50.
Regarding `COC(=O)c1cc(OC)c2nc(-c3ccc(C4(N)CCC4)cc3)c(-c3ccccc3)n2n1` [Example 12, Methyl 2-[4-(1-aminocyclobutyl)phenyl]-8-methoxy-3-phenylimidazo[1,2-b]pyridazine-6-carboxylate], the IC50 turned out to be 38 nM.
With `COc1cc(-c2cn[nH]c2)c2nc(-c3ccc(C4(N)CCC4)cc3)c(-c3ccccc3)n2n1` [Example 15, 1-{4-[6-Methoxy-3-phenyl-8-(1H-pyrazol-4-yl)imidazo[1,2-b]pyridazin-2-yl]phenyl} cyclobutanamine HCl salt], the IC50 stood at 56 nM.
As for `CCOc1cc(C(=O)NC)nn2c(-c3ccccc3)c(-c3ccc(C4(N)CCC4)cc3)nc12` [Example 22, 2-[4-(1-Aminocyclobutyl)phenyl]-8-ethoxy-N-methyl-3-phenylimidazo[1,2-b]pyridazine-6-carboxamide], the IC50 is 18 nM.
On the same count and under the same terms, the value for `NC1(c2ccc(-c3nc4c(-c5ncc[nH]5)cc(Cl)nn4c3-c3ccccc3)cc2)CCC1` [Example 24, 1-{4-[6-Chloro-8-(1H-imidazol-2-yl)-3-phenyl-imidazo[1,2-b]pyridazin-2-yl]phenyl} cyclobutanamine] was 81 nM.
Consider `COCCOc1cc(C(N)=O)nn2c(-c3ccccc3)c(-c3ccc(C4(N)CCC4)cc3)nc12` [Example 28, 2-[4-(1-Aminocyclobutyl)phenyl]-8-(2-methoxy-ethoxy)-3-phenylimidazo[1,2-b]pyridazine-6-carboxamide], for which the IC50 came out at 5.4 nM.
As to `CSc1ccc2nc(-c3ccc(C4(N)CCC4)cc3)c(-c3ccccc3)n2n1` [Example 36, 1-{4-[6-(Methylsulfanyl)-3-phenylimidazo[1,2-b]pyridazin-2-yl]phenyl}cyclobutanamine], the IC50 turned out to be 54 nM.
Take `CS(=O)(=O)c1ccc2nc(-c3ccc(C4(N)CCC4)cc3)c(-c3ccccc3)n2n1` [Example 38]: the IC50 stood at 140 nM.
Still for that read-out and setting: for `NC1(c2ccc(-c3nc4ccc(NC(=O)C(F)(F)F)nn4c3-c3ccccc3)cc2)CCC1` [Example 40, N-{2-[4-(1-Aminocyclobutyl)phenyl]-3-phenylimidazo[1,2-b]pyridazin-6-yl}-2,2,2-trifluoroacetamide] the value was 1400 nM; for `CC(=O)c1ccc2nc(-c3ccc(C4(N)CCC4)cc3)c(-c3ccccc3)n2n1` [Example 43, 1-{2-[4-(1-Aminocyclobutyl)phenyl]-3-phenylimidazo[1,2-b]pyridazin-6-yl}ethanone], 110 nM; for `CCCc1ccnn2c(-c3ccccc3)c(-c3ccc(C4(N)CCC4)cc3)nc12` [Example 47, 1-[4-(3-Phenyl-8-propylimidazo[1,2-b]pyridazin-2-yl)phenyl]cyclobutanamine], 350 nM.
Consider `NC(=O)c1cc(-c2cc[nH]n2)c2nc(-c3ccc(C4(N)CCC4)cc3)c(-c3ccccc3)n2n1` [Example 60, 2-[4-(1-Aminocyclobutyl)phenyl]-3-phenyl-8-(1H-pyrazol-3-yl)imidazo[1,2-b]pyridazine-6-carboxamide], for which the IC50 came out at 24 nM.
Regarding `CN(C)C(=O)c1ccc2nc(-c3ccc(C4(N)CCC4)cc3)c(-c3ccccc3)n2n1` [Example 69, 2-[4-(1-Aminocyclobutyl)phenyl]-N,N-dimethyl-3-phenylimidazo[1,2-b]pyridazine-6-carboxamide], the IC50 was 750 nM.
Consider `COc1cc(-c2ccnn2C)c2nc(-c3ccc(C4(N)CCC4)cc3)c(-c3ccccc3)n2n1` [Example 74, 1-{4-[6-Methoxy-8-(1-methyl-1H-pyrazol-5-yl)-3-phenylimidazo[1,2-b]pyridazin-2-yl]phenyl}cyclobutanamine], for which the IC50 turned out to be 120 nM.

The test system of the next test is phospho-AKT at S473. As to the kind of experiment: Cellular p-AKT1/2/3-S473 assay in KPL-4 cells. In kind it is cell-based. The settings on record: Homo sapiens, KPL4; KPL-4 breast tumour cell line, compound treatment 2 hours; read-out: pAKT-S473 median IC50.
As for `CCc1cc(OC)c2nc(-c3ccc(C4(N)CCC4)cc3)c(-c3ccccc3)n2n1` [Example 13, 1-[4-(6-Ethyl-8-methoxy-3-phenylimidazo[1,2-b]pyridazin-2-yl)phenyl]cyclobutanamine], the IC50 amounted to 82 nM.
